Test: Gradient of fluorescent dextran across collagen gel scaffold, dual fluid-flow path device, static conditions

time to reach steady state concentration profile in the gel cage (40 kDa dextran, initial 20 μg mL^−1 in one channel, collagen scaffold, static): ≤ 40 min | diffusion coefficient (value assumed in finite element model compared with steady state experimental data, 40 kDa dextran in collagen gel): 1×10^−6 cm^2 s^−1
Substance: dextran

— patent US9121847B2, “Three-dimensional microfluidic platforms and methods of use thereof” (Massachussetts Institute of Technology, priority 2008, dated 2015)
